From patent US20250145561A1, “4-SUBSTITUTED-PHENYL ACETAMIDES AND ARYLUREAS AS AGONISTS FOR THE ORPHAN RECEPTOR GPR88” (RESEARCH TRIANGLE INSTITUTE, priority 2022, published 2025) come the findings set out here.

Protein sequences, listed by entry. Tags and fused reporters are not part of them. Lines headed by an entry give the natural chain unless they say otherwise; changes in a name come on top.
UniProt Q9GZN0: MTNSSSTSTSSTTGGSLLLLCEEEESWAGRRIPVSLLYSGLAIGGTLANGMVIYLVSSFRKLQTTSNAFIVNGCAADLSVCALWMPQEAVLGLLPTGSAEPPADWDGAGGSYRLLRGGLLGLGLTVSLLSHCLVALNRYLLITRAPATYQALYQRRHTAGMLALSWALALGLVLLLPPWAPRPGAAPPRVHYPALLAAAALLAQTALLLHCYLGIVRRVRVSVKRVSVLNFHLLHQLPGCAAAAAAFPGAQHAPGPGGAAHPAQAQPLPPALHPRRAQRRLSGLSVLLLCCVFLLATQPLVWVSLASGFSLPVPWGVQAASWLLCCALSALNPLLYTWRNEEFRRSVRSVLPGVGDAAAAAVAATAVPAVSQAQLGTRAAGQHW

For the assay, the target named is GPR88 (Homo sapiens, UniProt Q9GZN0). In words: Lance Ultra TR-FRET cAMP assay using stable PPLS-HA-GPR88 CHO cells. It is filed as cell-based. The following applies: 300 nM forskolin, mean ± standard error of at least three independent experiments in duplicate. The protocol: The compounds of the present disclosure offer potent agonism to the orphan receptor GPR88. As such, the compounds of the present disclosure provide therapeutic potential for the treatment of striatal associated disorders such as Parkinson's disease, schizophrenia, and alcohol addiction. All compounds were evaluated for the GPR88 agonist activity in the inventors' previously established in vitro GPR88 Lance TR-FRET cAMP assay. See, supra, Jin et al., 2018, Rahman et al., 2020, and Rahman et al., 2021. As will be described, the TR-FRET signal was converted to fmol cAMP by interpolating from the standard cAMP curve. Fmol cAMP was plotted against the log of compound concentration and data were fit to a three-parameter logistic curve to generate maximum response (Emax) and EC50 values.
Lance™ Ultra cAMP assay using stable PPLS-HA-GPR88 CHO cells. All cAMP assays were performed using the inventors' previously published methods. See, e.g., Jin et al., Effect of substitution on the aniline moiety of the GPR88 agonist 2-PCCA: synthesis, structure-activity relationships, and molecular modeling studies. ACS Chemical Neuroscience 2016, 7, 1418-1432, which is incorporated by reference herein with regard to such teaching. Stimulation buffer containing 1× Hank's Balanced Salt Solution (HBSS), 5 mM HEPES, 0.1% BSA stabilizer, and 0.5 mM final IBMX was prepared and titrated to pH 7.4 at room temperature. Serial dilutions of the test compounds (5 μL) and 300 nM forskolin (5 μL), both prepared at 4× the desired final concentration in 2% DMSO/stimulation buffer, were added to a 96-well white ½ area microplate (PerkinElmer). A cAMP standard curve was prepared at 4× the desired final concentration in stimulation buffer and 5 μL was added to the assay plate. Stable PPLS-HA-GPR88 CHO cells were lifted with versene and spun at 270 g for 10 minutes. The cell pellet was resuspended in stimulation buffer and 4,000 cells (10 μL) were added to each well except wells containing the cAMP standard curve. After incubating for 30 min at room temperature, Eu-cAMP tracer and uLIGHT-anti-cAMPworking solutions were added per the manufacturer's instructions. After incubation at room temperature for 1 hour, the TR-FRET signal (ex 337 nm) was read on a CLARIOstar multimode plate reader (BMG Biotech, Cary, NC).
Data Analysis. The TR-FRET signal (665 nm) was converted to fmol cAMP by interpolating from the standard cAMP curve. Fmol cAMP was plotted against the log of compound concentration and data were fit to a three-parameter logistic curve to generate EC50 values (Prism, version 6.0, GraphPad Software, Inc., San Diego, CA). The Emax value for each test compound relative to the control compound RTI-13951-33 was calculated with the equation % control Emax=(maximal test compound signal/maximal control signal)×100.
Background: In TR-FRET formats the signal depends on donor and acceptor labels being close together.
As for `CCCC(C)COc1ccc([C@H](CO)C(=O)N[C@H](C)c2ccccc2)cc1` (stereo partly drawn) [Compound 3, (2R)-3-Hydroxy-2-{4-[(2-methylpentyl)oxy]phenyl}-N-[(1 R)-1-phenylethyl]propanamide], the “cAMP pEC50” value came out at 5.46 ± 0.05.

Regarding `CCCC(C)COc1ccc([C@@H](CO)C(=O)N[C@H](C)c2ccccc2C)cc1` (stereo partly drawn) [Compound 9, (2S)-3-Hydroxy-2-{4-[(2-methylpentyl)oxy]phenyl}-N-[(1 R)-1-(2-methylphenyl)ethyl]propenamide], the “cAMP pEC50” value is given as 5.28 ± 0.13.

On to `CCCC(C)COc1ccc([C@@H](CO)C(=O)N[C@H](C)c2cccc(C)c2)cc1` (stereo partly drawn) [Compound 10, (2S)-3-Hydroxy-2-{4-[(2-methylpentyl)oxy]phenyl}-N-[(1 R)-1-(3-methylphenyl)ethyl]propenamide], for which the “cAMP pEC50” value amounted to 6.45 ± 0.04.

`CCCC(C)COc1ccc([C@@H](CO)C(=O)N[C@H](C)c2ccc(C)cc2)cc1` (stereo partly drawn) [Compound 11, (2S)-3-Hydroxy-2-{4-[(2-methylpentyl)oxy]phenyl}-N-[(1 R)-1-(4-methylphenyl)ethyl]propenamide]: the “cAMP pEC50” value is reported as 6.83 ± 0.07.

As to `CCCC(C)COc1ccc([C@@H](CO)C(=O)N[C@H](C)c2ccc(F)cc2)cc1` (stereo partly drawn) [Compound 12, (2S)—N-[(1 R)-1-(4-Fluorophenyl)ethyl]-3-hydroxy-2-{4-[(2-methylpentyl)oxy]phenyl}propenamide], the “cAMP pEC50” value is reported as 6.05 ± 0.05.

On to `CCCC(C)COc1ccc([C@@H](CO)C(=O)N[C@H](C)c2ccc(OC)cc2)cc1` (stereo partly drawn) [Compound 13, (2S)-3-Hydroxy-N-[(1 R)-1-(4-methoxyphenyl)ethyl]-2-{4-[(2-methylpentyl)oxy]phenyl}propenamide], for which the “cAMP pEC50” value was determined as 6.13 ± 0.11.

As to `CCCC(C)COc1ccc([C@@H](CO)C(=O)NCc2ccccc2)cc1` (stereo partly drawn) [Compound 15, (2S)—N-Benzyl-3-hydroxy-2-{4-[(2-methylpentyl)oxy]phenyl}propenamide], the “cAMP pEC50” value is reported as 6.23 ± 0.09.

Consider `CCCC(C)COc1ccc([C@@H](CO)C(=O)NCCc2ccccc2)cc1` (stereo partly drawn) [Compound 16, (2S)-3-Hydroxy-2-{4-[(2-methylpentyl)oxy]phenyl}-N-(2-phenylethyl)propenamide], for which the “cAMP pEC50” value was determined as 6.15 ± 0.06.

Consider `CCCC(C)COc1ccc([C@@H](CO)C(=O)N[C@H](CC)c2ccccc2)cc1` (stereo partly drawn) [Compound 17, (2S)-3-Hydroxy-2-{4-[(2-methylpentyl)oxy]phenyl}-N-[(1 R)-1-phenylpropyl]propenamide], for which the “cAMP pEC50” value amounted to 6.44 ± 0.04.

In the case of `CCCC(C)COc1ccc([C@@H](CO)C(=O)N[C@H](COC)c2ccccc2)cc1` (stereo partly drawn) [Compound 18, (2S)-3-Hydroxy-N-[(1 S)-2-methoxy-1-phenylethyl]-2-{4-[(2-methylpentyl)oxy]phenyl}propenamide], the “cAMP pEC50” value turned out to be 6.29 ± 0.05.

Regarding `CCCC(C)COc1ccc([C@@H](CO)C(=O)NC2(c3ccccc3)CC2)cc1` (stereo partly drawn) [Compound 20, (2S)-3-Hydroxy-2-{4-[(2-methylpentyl)oxy]phenyl}-N-(1-phenylcyclopropyl)propenamide], the “cAMP pEC50” value is 5.72 ± 0.08.

Regarding `CCCC(C)COc1ccc([C@@H](CO)C(=O)N[C@H](C)c2ccccn2)cc1` (stereo partly drawn) [Compound 21, (2S)-3-Hydroxy-2-{4-[(2-methylpentyl)oxy]phenyl}-N-[(1 R)-1-(pyridin-2-yl)ethyl]propenamide], the “cAMP pEC50” value came to 5.41 ± 0.10.

Take `CCCC(C)COc1ccc([C@@H](CO)C(=O)N[C@H](C)c2ccco2)cc1` (stereo partly drawn) [Compound 22, (2S)—N-[(1 R)-1-(Furan-2-yl)ethyl]-3-hydroxy-2-{4-[(2-methylpentyl)oxy]phenyl}propenamide]: the “cAMP pEC50” value is listed as 5.99 ± 0.09.

As for `CCCC(C)COc1ccc([C@@H](CO)C(=O)N[C@H](C)c2cccs2)cc1` (stereo partly drawn) [Compound 23, (2S)-3-Hydroxy-2-{4-[(2-methylpentyl)oxy]phenyl}-N-[(1 R)-1-(thiophen-2-yl)ethyl]propenamide], the “cAMP pEC50” value turned out to be 6.29 ± 0.08.

In the case of `CCCC(C)COc1ccc([C@@H](CO)C(=O)N[C@@H]2C[C@H]2c2ccccc2)cc1` (stereo partly drawn) [Compound 24], the “cAMP pEC50” value was 5.39 ± 0.09.
